# Molecular target: T1, bovine β-lactoglobulin (Bos taurus, UniProt P02754)
# T1 sequence (P02754 17-178): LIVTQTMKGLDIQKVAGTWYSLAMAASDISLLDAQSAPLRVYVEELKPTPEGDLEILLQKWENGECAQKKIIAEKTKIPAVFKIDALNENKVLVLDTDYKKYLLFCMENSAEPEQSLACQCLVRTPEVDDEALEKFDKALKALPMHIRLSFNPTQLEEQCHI
# Description: β-Lactoglobulin from bovine milk, retinol, nitrophenyl phosphate and bromoethanol were purchased from Sigma Chemical Company (St. Louis, Mo., USA) and used without further purification. A stock solution of β-lactoglobulin in water was prepared at a concentration of 10.0 mg/ml. Nitrophenyl phosphate, retinol, and bromoethanol were dissolved in the protein stock solutions in the molecular ratios as indicated in Table 1. These protein/binding partner solutions were subjected to partitioning in a series of different aqueous two-phase systems, also as indicated below.
# The aqueous two-phase system contained 13.75 wt. % PEG-600 (molecular weight of about 600) and 21.00 wt. % sodium/potassium phosphate buffer (pH 6.8). Each system was prepared by mixing the appropriate amounts of stock polymer and buffer solutions dispensed by liquid handling workstation Hamilton ML-2200 into a 1.2 mL microtube. A total volume of 800 μL was dispensed to the microtube. A varied amount (40, 80, 120, 160, and 200 μL) of the β-lactoglobulin solution or that of a mixture of a given ratio and the corresponding amount (160, 120, 80, 40, and 0.0 μl) of water were added to a system. The ratio between the volumes of the two phases of each system of a final volume of 1.00 mL was as 1:1. The system was shaken vigorously and then centrifuged for 30 min. at about 4000 rpm to speed resolution of the two phases. Tubes were then taken from the centrifuge, aliquots of a given volume (100 μl for direct spectrophotometric analysis and 150 μl for fluorescence analysis) from the top and the bottom phases were withdrawn in duplicate. Each aliquot was diluted, mixed with appropriate reagents, and used for analyzed as described below.
# The other aqueous two-phase system contained 8.88 wt. % Dextran-64 (molecular weight of about 64,000), 12.86 wt. % Ficoll-400 (molecular weight of about 400,000) and 0.01 M sodium phosphate buffer (pH 8.6). Each system was prepared by mixing the appropriate amounts of stock polymer and buffer solutions dispensed by liquid handling workstation Hamilton ML-2200 into a microtube of a total volume of 1.2 mL up to a total volume of a system of 820 μL. A varied amount (40, 80, 120, and 160 μl) of the β-lactoglobulin solution or that of a mixture of a given ratio and the corresponding amount (140, 100, 60, and 20 μl) of water were added to each system. […] Tubes were taken out of the centrifuge, and aliquots of a given volume (100 μl for direct spectrophotometric analysis and 150 μl for fluorescence analysis) from the top and the bottom phases were withdrawn in duplicate and each diluted and mixed with appropriate reagents as indicated below and used for further analysis performed as described below. […]
substance,measurement,setting,value
"bovine β-lactoglobulin: β-Lactoglobulin from bovine milk (Sigma); protein alone, row 'None' of Table 1","Partition coefficient K-value, PEG/Phosphate system",pH 6.8,1.796 ± 0.005
same,"Partition coefficient K-value, Dex-PEG system",pH 7.4,0.180 ± 0.008
same,"Partition coefficient K-value, Dex-Ficoll system",pH 8.6,0.836 ± 0.003
same,"Partition coefficient K-value, Dex-Ficoll-NaSCN system",pH 8.6,0.451 ± 0.002

# From US8211714B2, “Characterization of molecules” (Analiza, Inc., priority 2001, dated 2012)
